Screen for blockers of NLRP3-driven cell death, PubChem AID 2061109 (Seoul National University).
Cells: mouse bone marrow macrophages; stimulus: LPS priming, then nigericin; dose: 5 µM; read-out: propidium iodide uptake by live imaging.
Inhibition in %: 0 = stimulated control, 100 = untreated cells; values below 0 were filed as 0. * marks the depositor's active call (above 70%). Part of the library is listed.

SMILES | inhibition [%]
Cc1csc(=NC2CCCCC2)n1/N=C/c1ccc(O)c(O)c1O | 24.2
COc1ccc(CNC(=O)c2cc(-c3cncc(Cl)c3)cnc2-c2ccccn2)nc1OC | 24.2
COC(=O)[C@@]1(C)CC[C@]2(C(=O)O)CC[C@]3(C)C(=CC[C@@H]4[C@@]5(C)C[C@H](O)[C@H](O[C@@H]6OC[C@@H](O[C@@H]7O[C@H](CO)[C@@H](O)[C@H](O)[C@H]7O)[C@H](O)[C@H]6O)[C@@](C)(CO)[C@@H]5CC[C@]43C)[C@@H]2C1 | 24.0
COC(=O)c1ccc2[nH]c(O)c(C(=Nc3ccc(N(C)C(=O)CN4CCN(C)CC4)cc3)c3ccccc3)c2c1 | 23.8
CCCCCC/C=C\CCCCCCCCCc1cccc(O)c1C(=O)O | 23.7
OC[C@H]1O[C@@H](Oc2c[nH]c3ccccc23)[C@H](O)[C@@H](O)[C@@H]1O | 23.7
O=C(O)c1ccc(/C=C2\SC(=S)N(Cc3cccc(C(F)(F)F)c3)C2=O)cc1 | 23.6
CC[C@@]1(O)C(=O)OCc2c1cc1n(c2=O)Cc2c-1nc1ccccc1c2/C=N/OC(C)(C)C | 23.6
CC(=O)O.CSCC[C@H](NC(=O)[C@@H]1CCCN1C(=O)[C@@H](N)C(C)C)C(=O)N[C@@H](CC(C)C)C(=O)N[C@@H](CCCCN)C(=O)O | 23.5
CCN(CCCCOc1ccc(/C=C/C(=O)N2CCc3ccccc3C2)cc1OC)Cc1ccccc1 | 23.3
Cl.O=C1CC[C@@]2(O)[C@H]3Cc4ccc(O)c5c4[C@@]2(CCN3CC2CC2)[C@H]1O5 | 23.3
CC(C)n1cnnc1-c1cccc(NC(=O)c2cc3ccc(F)cc3[nH]2)n1 | 23.3
Cc1ncc(C)n2nc([C@@H]3C[C@H]3c3nc4c5cccnc5ccn4c3C)nc12 | 23.2
CC(C)(C)OC(=O)c1ccc(NC23CC4CC(CC(C4)C2)C3)c(N=Cc2cncnc2)c1 | 23.0
CC(C)(C)NC(=O)[C@H]1CC[C@H]2[C@@H]3CC[C@H]4NC(=O)C=C[C@]4(C)[C@H]3CC[C@]12C | 22.9
O=C(OC(C(F)(F)F)C(F)(F)F)N1CCN(Cc2ccc(C(F)(F)F)cc2N2CCCC2)CC1 | 22.7
CC(=O)N([C@H](C=O)CC(=O)O)[C@H](C(=O)NC(=O)[C@H](CCC(=O)O)NC(=O)[C@@H](N)CC(=O)O)C(C)C.CC(=O)O | 22.6
CS(=O)(=O)O.O=C(NC1CCN(CCCCC2(C(=O)NCC(F)(F)F)c3ccccc3-c3ccccc32)CC1)c1ccccc1-c1ccc(C(F)(F)F)cc1 | 22.0
COc1ccccc1Nc1nc(-c2sc(NC(C)=O)nc2C)cs1 | 21.9
FC(F)(F)c1cc(-c2ncn(/C=C\c3nnco3)n2)cc(C(F)(F)F)c1 | 21.9
Cc1cc2ncc(-c3ccc(O)c(O)c3)nc2cc1C | 21.6
CCCCOc1ccc(CC/C=C2\SC(=O)N(CCN)C2=O)cc1.Cl | 21.6
Cc1c(CC(=O)O)c(-c2ccccc2)nn1Cc1ccccc1S(=O)(=O)N1CCOCC1 | 21.6
C=C[C@H]1[C@H](O[C@@H]2O[C@H](CO)[C@@H](O)[C@H](O)[C@H]2O)OC=C2C(=O)OC(O)C[C@H]21 | 21.6
C=CCN1CCCC1CNC(=O)c1cc2n[nH]nc2cc1OC.Cl | 21.2
CN(C)c1ccc(-c2nc3ccc(F)cc3[nH]2)cc1 | 21.0
CN(CC(=O)c1ccccc1)c1cccc(C(=O)Nc2c(Br)cc(C(F)(C(F)(F)F)C(F)(F)F)cc2C(F)(F)F)c1F | 20.8
O=C(Nc1ccc(Cl)cc1)N1CCN(c2cccc3[nH]ccc23)CC1 | 20.7
CC[C@H](C)[C@H](NC(=O)[C@H](Cc1ccc(O)cc1)NC(=O)[C@@H](NC(=O)[C@H](CCCN=C(N)N)NC(=O)[C@@H](N)CC(=O)O)C(C)C)C(=O)N[C@@H](Cc1cnc[nH]1)C(=O)N1CCC[C@H]1C(=O)O | 20.6
CCCN1CCN(c2ccc(C(=O)NC3(C(=O)NCC#N)CCCCC3)cc2)CC1 | 20.5
CC(C)c1cccc(C(C)C)c1NC(=O)Nc1ccc(Sc2ccc([N+](=O)[O-])cc2)cc1 | 20.4
CC(=O)SCC(Cc1ccccc1)C(=O)NCC(=O)OCc1ccccc1 | 20.4
NC(=O)C(=O)[O-].[Na+] | 20.1
COc1c(C)c(C(=O)c2ccc(N)c(C(=O)[O-])c2)n2ccccc12.[Na+] | 20.1
COc1cc2c(cc1OC(C)C)[C@H](c1ccc(Cl)cc1)N(c1ccc(N(C)CC3CCC(N4CCN(C)C(=O)C4)CC3)cc1)C(=O)C2 | 19.9
COCCOc1cc2nc[nH]c(=O)c2cc1OCCOC | 19.6
O=C(O)/C=C/C(=O)O.c1ccc(C(O[C@@H]2CCCN(CCc3ccc4c(c3)OCO4)C2)c2ccccc2)cc1 | 19.5
CO[C@@H]1C[C@@H](C[C@H]2CC[C@H](C)[C@H]([C@@H](C)C(=O)[O-])O2)O[C@]2(O[C@](C)([C@H]3CC[C@@](C)([C@@H]4O[C@@H]([C@H]5O[C@@](O)(CO)[C@H](C)C[C@@H]5C)C[C@@H]4C)O3)C[C@H]2C)[C@@H]1C.[Na+] | 19.2
CN(C)[C@@H]1C(=O)C(C(N)=O)=C(O)[C@@]2(O)C(=O)C3=C(O)c4c(O)cccc4[C@@](C)(O)[C@H]3[C@H](O)[C@@H]12.Cl | 18.7
C[C@@H](Oc1cc(-n2cnc3ccc(CN4CCN(C)CC4)cc32)sc1C(N)=O)c1ccccc1C(F)(F)F | 18.6
O=C(N[C@H](Cc1ccccc1)C(=O)O)c1sc2cc(F)ccc2c1Cl | 18.4
CC1(C)CC[C@]2(C(=O)O[C@@H]3O[C@H](CO)[C@@H](O)[C@H](O)[C@H]3O)CC[C@]3(C)C(=CC[C@@H]4[C@@]5(C)CC[C@H](O[C@@H]6O[C@H](C(=O)O)[C@@H](O)[C@H](O)[C@H]6O[C@@H]6O[C@H](CO)[C@@H](O)[C@H](O)[C@H]6O)C(C)(C)[C@@H]5CC[C@]43C)[C@@H]2C1 | 17.8
Cc1cnc(NC(=O)Nc2cc(Br)c(C)cc2OC[C@@H]2CNCCO2)cn1 | 17.3
O=CN1CCN(c2ccc(C=C3C(=O)Nc4ccccc43)cc2)CC1 | 17.0
COC1CCC(C(=O)c2ccc3nc4c(cc3c2)CCCO4)CC1 | 17.0
CC(C1CC1)n1cnc2c(NCc3cccc(C(F)(F)F)c3)nc(NCCN(C)C)nc21 | 16.6
COc1cc(OC)c2c(=O)c(OCCCCN3CCN(C(=O)c4ccncc4)CC3)c(-c3cc(OC)c(OC)c(OC)c3)oc2c1 | 16.5
COc1nc(C)ccc1-c1cc(Nc2cncc(O[C@@H]3CCCNC3)n2)n[nH]1 | 16.5
COc1ccc(Cn2cc(C(=O)N=Nc3c(O)[nH]c4c(C)cccc34)nn2)cc1 | 16.3
COc1ccc(S(=O)(=O)Nc2cccnc2Nc2ccc(O)cc2)cc1 | 16.2
CCc1c(O)cc(O)c(C(=O)c2ccc(OCCN3CCOCC3)c(OC)c2)c1CC(=O)N(CCOC)CCOC | 16.2
CCN(C(=O)c1cc(Cl)c(OCCN2CCN(C)CC2)c(Cl)c1O)c1ccccc1.Cl.Cl | 16.1
Oc1cc2c(cc1O)[C@@H]1c3ccc(O)c(O)c3OC[C@]1(O)C2 | 15.7
Cc1nnn(C)c1-c1cnc2c3ccc(C(C)(C)O)cc3n([C@H](c3ccccc3)C3CCOCC3)c2c1 | 15.7
CC(C)OP(=O)(OC(C)C)C(Cc1cc(C(C)(C)C)c(O)c(C(C)(C)C)c1)P(=O)(OC(C)C)OC(C)C | 15.5
Nc1cncc(-c2cn3ccnc3c(Nc3ccc(N4CCN(C5COC5)CC4)cc3)n2)n1 | 15.3
CC(=O)NCCc1c(Cc2ccccc2)[nH]c2ccccc12 | 15.3
CC(C)Cc1ccc([C@@H](C)C(=O)O)cc1 | 15.2
N#C/C(=C\c1cccnc1)c1c[nH]c2ccccc12 | 14.9
CCCS(=O)(=O)Nc1ccc(F)c(C(=O)c2c[nH]c3ncc(-c4ccc(Cl)cc4)cc23)c1F | 14.9
O=C1c2ccccc2C(=O)C1c1ccc(Cl)cc1 | 14.8
O=C1C(=Nc2cccc(C(F)(F)F)c2)c2ccccc2N1c1ccccc1 | 14.8
N=C(N)c1ccc(CNC(=O)[C@@H]2CCN2C(=O)[C@H](NCC(=O)O)C2CCCCC2)cc1 | 14.6

5 of the compounds above, restated:

SMILES	inhibition [%]
CCN(C(=O)c1cc(Cl)c(OCCN2CCN(C)CC2)c(Cl)c1O)c1ccccc1.Cl.Cl	16.1
C=CCN1CCCC1CNC(=O)c1cc2n[nH]nc2cc1OC.Cl	21.2
COc1ccc(CNC(=O)c2cc(-c3cncc(Cl)c3)cnc2-c2ccccn2)nc1OC	24.2
COc1c(C)c(C(=O)c2ccc(N)c(C(=O)[O-])c2)n2ccccc12.[Na+]	20.1
CCCCCC/C=C\CCCCCCCCCc1cccc(O)c1C(=O)O	23.7